{"source": "patent US20210137951A1", "about": "“DRUG COMBINATION FOR TREATMENT OF AMYOTROPHIC LATERAL SCLEROSIS, PREPARATION METHOD AND USE THEREOF” (priority 2018, published 2021)", "key": {"[1]": {"system": "hSOD1-G93A transgenic mice", "type": "in vivo", "conditions": "gavage 4 weeks", "procedure": "(§1) 10 two-months wild-type BALB/C mice were used as the normal control group, and 110 two-months hSOD1-G93A transgenic mice were randomly divided into 11 groups, 10 mice for each group, and 11 groups are blank group, positive control group, the drug compositions 1-3 of the present invention groups, and the control 1-6 groups, respectively.\n(§2) All mice were adaptively fed for three weeks, and a rotating rod experiment was performed once a week. The diameter of the rotating rod was 3.5 cm, and its rotating speed was 12 r/min. Experiment on each mouse was carried out three times in parallel, with a 5 min interval. The longest time recorded was the fall time of mice, the mice with a fall time of shorter than 7 min in the third rotating rod experiment were excluded, and then mice received drugs by intragastric administration, in which the normal control group and the blank group were given physiological saline, while the positive control group, the drug combinations 1-3 groups, and the control groups 1-6 were given corresponding drugs, with the volume of 0.5 ml. Amongst, the gavage dose of positive control group was 2 mg/kg body weight, and the gavage dose of drug combinations 1-3 and controls 1-6 groups was both 40 mg/kg body weight. […] In one experiment, each mouse was tested 3 times at interval of 5 minutes, and the longest time recorded was the fall time of mice. […]"}, "[2]": {"system": "hSOD1-G93A transgenic mice", "assay": "Number of mice surviving more than 120 days", "type": "in vivo", "conditions": "intragastric once a day for 4 weeks, 40 mg/kg (positive control 2 mg/kg), 8-9 mice per group", "procedure": "as §1, §2"}}, "data": [{"smiles": "Nc1nc2ccc(OC(F)(F)F)cc2s1", "note": "[Positive control, Riluzole]", "values": [{"measurement": "Indexes for the fall time and the number of mice surviving more than 120 days, comparison between groups (in words)", "setting": "[1]", "value": "obviously longer than that of the mice in the blank group"}, {"measurement": "Effect on delaying the progression of amyotrophic lateral sclerosis (in words)", "setting": "[1]; judged from fall time and mice surviving more than 120 days", "value": "had the effect on delaying the progression of amyotrophic lateral sclerosis"}, {"measurement": "Survival numbers (number of mice surviving for more than 120 days)", "setting": "[2]", "value": 4}, {"measurement": "Survival numbers (number of mice surviving for more than 120 days)", "setting": "[2]; listed as riluzole", "value": "four"}]}]}
